Data on 1 compound can be found in PubChem BioAssay AID1714 (Vanderbilt High Throughput Screening Facility, 2009).

The list shows a part of the results, in another mix than the full data. Results filed as inconclusive are left out. Active and inactive are the calls of the source.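 How the source made its calls: active means thallium entry rate above the same plate's blocked-transporter control wells by more than 3 SD; inconclusive means the two repeat wells disagree; inactive means the rest.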

The test can be described thus: KCC2 HEK cell Tl+ influx single-dose follow-up with bumetanide block (AID 1714).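 Further: raw slope of fluorescence over initial fluorescence between 10 and 20 s after thallium.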 To be noted: HEK293-KCC2 + bumetanide/ouabain, thallium flux FluoZin2; at 10 µM; active compounds read high. In short, it runs like this: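 Test system: HEK cells expressing the K-Cl cotransporter KCC2 | Compound: One dose, 10 µM, 0.1% DMSO | Replication: Duplicates | Evaluation: Normalized thallium flux slope | Detection: FluoZin2-AM (0.5 µM) fluorescence, 480 nm ex/540 nm em, 1 Hz kinetic imaging | Incubation: Overnight culture 37 °C, dye loading 48 min | Reagent: Thallium stimulus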
As for `CP(=O)(Nc1ccccc1)Oc1ccc(F)cc1` (stereo unspecified), the normalized thallium flux is inactive: 0.007.
